Assay results published in patent US7776913B2, “Carnitines for treating or preventing disorders caused by andropause” (Sigma-Tau Industrie Farmaceutiche Riunite S.p.A., priority 2002, dated 2010).

Test system: Patients aged over 60 years with lowered blood concentrations of free and total testosterone
Test: Penile dynamic colour Doppler ultrasonography (PSV, EDV, RI of cavernous arteries)
Format: in vivo, human
Settings: mean ± SD; for Right cavernous artery RI: values subjected to angular transformation; for Left cavernous artery RI: values submitted to angular transformation
Text: Reported here below is a clinical trial conducted in order to evaluate the activity of the combination according to the association in the treatment of the symptoms of male ageing.
Patients aged over 60 years with lowered blood concentrations of free and total testosterone (The Aging Male 4: 151-162, 2001) and complaining of symptoms figuring in the working definition of andropause proposed by the International Society for the Study of the Aging Male (I.S.S.A.M.) (The Aging Male 4: 151-162, 2001): reduced libido or sex drive and erectile function, depressed mood, difficulty concentrating, irritability and fatigue.
The above-mentioned compounds were presented to the patients in anonymous containers and administered for 6 months.
Medical history-taking and physical examinations were done for all patients. The following data were also collected prior to the start of treatment, after 1, 3 and 6 months of treatment: • 1. Total blood prostate-specific antigen (PSA) (ng/ml) as measured with the automatic test and monoclonal antibodies [Rigatti P., Scattoni V.: PSA: Antigene prostatico specifico. Edizioni Medico Scientifiche (EDIMES) Pavia, 1997]. • 2. Prostate volume (cm^3) as measured by suprapubic ultrasonography and calculated by means of the three diameters rule [Rigatti P. Scattoni V.: PSA: Antigene prostatico specifico. Edizioni Medico Scientifiche (EDIMES) Pavia, 1997]. • 3. Peak systolic volume (PSV) (cm/sec), end-diastolic velocity (EDV) (cm/sec), and Resistance Index (RI) (%) of the penile arteries (right and left cavernous e dorsal) as measured by means of penile basal and dynamic colour Doppler ultrasonography. RI was calculated as follows: (PSV-EDV/EDV)×100 (Urology 1997: 49: 822-830). • 4. Duration of full erections (in minutes) in the course of a recording period of three nights performed with Rigiscan. […] Free and total blood testosterone, LH and prolactin levels (The Aging Male 4: 151-162, 2001). • 6. Sexual function was checked by means of semistructured interviews and administration of the International Index of Erectile Function (IIEF-15) (Urology 1997: 49: 822-830). A score was calculated for each patient. • 7. Depression was quantified by means of the Hamilton Depression Scale questionnaire (DMS III) (Cancer 94: 2481-2489, 2002). A score was calculated for each patient. • 8. The subjective sensation of fatigue was calculated using the fatigue scale (Lison L.: Statistica applicata alla biologia sperimentale. Milano: Casa Editrice Ambrosiana, 1972). A score was calculated for each patient. • 9. Side effects.
Blood concentrations of PSA, free and total testosterone, prolactin LH, prostate volume, PSV, EDV, RI, full erection duration, IIEF-15, DMS III, and fatigue scale scores were compared between and within groups by means of factorial analysis of variance for randomised blocks (1 patient=1 block). Comparison of the mean values was done on the raw data with the exclusion of RI which used data subjected to angular transformation (sin^−1 √P/100) for the comparisons.

testosterone undecaonate was tested, and the “Right cavernous artery RI” value (3 months of therapy) was 60.9 ± 8.4%, the “Left cavernous artery RI” value (3 months of therapy) was 61.5 ± 7.8% and the “Right cavernous artery RI” value (6 months of therapy) was 61.1 ± 7.9%. The “Left cavernous artery RI” value (6 months of therapy) was 62.1 ± 7.0%, the “Right cavernous artery RI” value (before therapy) was 64.6 ± 8.4% and the “Left cavernous artery RI” value (before therapy) was 61.5 ± 8.3%.
